Test system: LNCaP/AR(cs) xenograft tumors
Settings: murine xenograft model of human CRPC

SMILES: CNC(=O)c1ccc(N2C(=S)N(c3cnc(C#N)c(C(F)(F)F)c3)C(=O)C23CCC3)cc1F [ARN-509]
- dose achieving maximal therapeutic response: 30 mg/kg/day
